Values quoted from earlier work, collected in patent US20240189317A1, “ANTIVIRAL COMPOSITIONS AND METHODS” (AI Therapeutics, Inc., priority 2021, published 2024).
pIC50: −log10 of the molar value.

System: basal and insulin-activated 2-deoxyglucose uptake
Settings: read-out: IC50, inhibition of basal and insulin-activated 2-deoxyglucose uptake; adipocytes; cited from earlier work

## Nc1ccc(C(=O)Nc2cccc(-c3nc(N4CCOCC4)c4oc5ncccc5c4n3)c2)cn1 [YM-201636, 6-amino-N-(3-(4-morpholinopyrido[3′,2′:4,5]furo[3,2-d]pyrimidin-2-yl)phenyl)nicotinamide]
  pIC50: 7.27
